Literature values as cited in US20120046461A1, “STEROIDAL ANTI-HORMONE HYBRIDS” (Northeastern University, priority 2009, published 2012).

Settings: in vivo; cited from earlier work

herceptin: FDA approved mAb for the treatment of metastatic breast cancers that overexpress HER-2
tumor regression, share of recipients: 7%
